The target in one experiment is Menin-MLL (Homo sapiens, UniProt O00255). Put plainly: Inhibitory activity against Menin-MLL binding (fluorescence polarization). To be noted: read-out: Menin-MLL IC50, 150 nM His-Menin, 15 nM FITC-MLL, 25°C for 60 min. On the technique in general: Fluorescence polarisation rises when a labelled molecule tumbles more slowly, as on binding a larger partner.
Experiment [1] deals with MOLM-13 (carrying MLL-AF9). Put plainly: Inhibition of proliferation of human tumor cells (Alamar Blue, 7 days), MOLM-13. To be noted: read-out: MOLM-13 IC50, MOLM-13 cells (carrying MLL-AF9), method calls the value GI50. The source says:
(§1) Experimental Example 2: Evaluation of Inhibitory Activity of Compounds Against Proliferation of Human Tumor Cells
(§2) • Human acute lymphoblastic leukemia cells MV-4-11, purchased from American Type Culture Collection, Catalog Number: CRL-9591; • Human acute myeloid leukemia cells MOLM-13, purchased from COBIOER BIOSCIENCES CO., LTD, Catalog Number: CBP60678; • Human acute myeloid leukemia cells KG-1a, purchased from American Type Culture Collection, Catalog Number: CCL-246.1; • Inverted Microscope, purchased from Olympus Tokyo; • Countess™ Automated Cell Counter, purchased from Invitrogen, Model: C10281; and • Multilabel Reader, purchased from Bio-Tek, Model: Synergy HT.
(§3) MV-4-11 cells were cultured in an IMDM medium containing 10% fetal bovine serum, KG-a cells were cultured in an IMDM medium containing 20% fetal bovine serum, or MOLM-13 cells were cultured in an RPMI-1640 medium containing 20% fetal bovine serum, each supplemented with 100 U·mL^-1 penicillin and 100 µg·mL^-1 streptomycin. These cells were cultured at 37°C with 5% CO2. The suspensions of individual cell lines were prepared in their respective media and seeded into 96-well plates at a density of 4,000 cells/well for MV-4-11 and MOLM-13 cells, or 3,000 cells/well for KG-1a cells. On the day of the experiment, a compound stock solution was diluted in a 3-fold or 4-fold gradient using DMSO. Each gradient-diluted stock solution was then further diluted 250-fold with a complete medium to prepare a series of working solutions at different concentrations. Subsequently, 100 µL of working solution (containing a 2-fold concentration series of the test compound) was added to each well, with duplicate wells set up for each concentration.
Seven days after compound addition (on Day 7), an Alamar Blue assay reagent (MCE, HY-111391 / CS-0040317) was added to measure the fluorescence intensity in each well. Wells containing the cells in the growth medium supplemented with 0.1% DMSO (Day 7) served as high-read control wells. The readouts from the wells containing the cells in the growth medium supplemented with 0.1% DMSO on the day of compound addition (Day 0) served as low-reading control well. GraphPad Prism software was used to calculate the concentration required to inhibit 50% of cell proliferation (GI50), which serves as a cell proliferation inhibition activity index. The GI50 (half-maximal inhibitory concentration) of the compound was determined using the following nonlinear fitting formula: 4-Parameter Logistic Model or Sigmoidal Dose-Response Model: Y = Bottom + (Top−Bottom)/(1 + 10^((LogGI50−X) × Hill Slope)), [formula] in which X indicates the logarithm of compound concentration, Y indicates an inhibition rate (% inhibition), Top indicates a readout of high-reading control well, and Bottom indicates a readout of low-reading control well, with Inhibition rate(%inhibition) = (Readout of Compound well−Readout of low−reading control well)/(Read of high−reading control well−Readout of low−reading control well) × 100%. [formula]
In general terms: Resazurin is reduced to fluorescent resorufin, in cell work by metabolically active cells.

Amino acid sequences for entries named in this document (tags omitted). Residues count along the entry.
UniProt O00255, 1-615 isoform 1: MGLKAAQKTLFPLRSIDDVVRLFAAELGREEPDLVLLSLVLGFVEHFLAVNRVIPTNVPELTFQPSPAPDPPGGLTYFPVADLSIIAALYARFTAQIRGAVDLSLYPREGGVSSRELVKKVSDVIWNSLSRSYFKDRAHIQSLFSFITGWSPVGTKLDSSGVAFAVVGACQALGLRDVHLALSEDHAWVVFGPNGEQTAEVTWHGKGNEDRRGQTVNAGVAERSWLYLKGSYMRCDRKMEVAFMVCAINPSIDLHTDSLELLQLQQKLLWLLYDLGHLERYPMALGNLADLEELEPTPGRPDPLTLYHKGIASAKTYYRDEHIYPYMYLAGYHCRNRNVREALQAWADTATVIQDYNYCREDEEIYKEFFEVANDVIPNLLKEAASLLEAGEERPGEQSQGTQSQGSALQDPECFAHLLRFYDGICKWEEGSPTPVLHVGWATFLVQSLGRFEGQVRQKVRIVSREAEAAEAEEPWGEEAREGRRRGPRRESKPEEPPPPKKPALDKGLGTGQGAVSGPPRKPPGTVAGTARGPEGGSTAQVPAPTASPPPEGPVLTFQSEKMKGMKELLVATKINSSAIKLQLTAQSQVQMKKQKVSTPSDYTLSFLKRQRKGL

For experiment [2], the system named is MEIS1 gene expression. Put plainly: Inhibition of MEIS1 gene expression in human tumor cells (qRT-PCR), MV-4-11. To be noted: read-out: MV-4-11 MEISI EC50; MV-4-11 (carrying MLL-AF4); 48 hours of incubation; relative MEIS1 gene expression vs GAPDH. The source says: (§4) Experimental Example 3: Evaluation of Inhibitory Activity of Compounds Against MEISI Gene Expression in Human Tumor Cells
(§5) The effect of test samples on MEIS1 gene expression in vitro cultured human leukemia cells MV-4-11 (carrying MLL-AF4), MOLM-13 (carrying MLL-AF9), and OCI-AML3 (carrying NPM1c) was studied.
(§6) • Human acute lymphoblastic leukemia cells MV-4-11, purchased from American Type Culture Collection, Catalog Number: CRL-9591; • Human acute myeloid leukemia cells MOLM-13, purchased from COBIOER BIOSCIENCES CO., LTD, Catalog Number: CBP60678; • Human acute myeloid leukemia cells OCI-AML3, purchased from COBIOER BIOSCIENCES CO., LTD, Catalog Number: CBP60817; • MEIS1 Primer/Probe, purchased from IDT, Catalog Number: 40831613; and • GAPDH Primer/Probe, purchased from IDT, Catalog Number: 22214836.
(§7) MV-4-11 cells were cultured in an IMDM medium containing 10% fetal bovine serum, or MOLM-13 and OCI-AML3 cells were cultured in an RPMI-1640 medium containing 20% fetal bovine serum, each supplemented with 100 U·mL^-1 penicillin and 100 µg·mL^-1 streptomycin. These cells were cultured at 37°C with 5% CO2. The suspensions of individual cell lines were prepared in their respective media and seeded into 48-well plates at a density of 100,000 cells/well. On the day of the experiment, a compound stock solution was diluted in a 6-fold gradient using DMSO. Each gradient-diluted stock solution was then further diluted 250-fold with a complete medium to prepare a series of working solutions at different concentrations. Next, 250 µL of working solution (containing the complete medium with a 2-fold serial concentration of the test compound or a positive control compound, or containing a control complete medium) was added to each well. After 48 hours of incubation, cells from the 48-well plate were collected into 1 mL centrifuge tubes, centrifuged at 1000 rpm for 5 minutes, and the complete medium was removed. Cells were washed twice with 1 mL PBS and centrifuged to remove PBS. Total RNA was extracted using the RNeasy Mini Kit (250) (QIAGEN, 74106). The threshold cycle (Ct) value for gene expression was determined using the HiScript II U+ One Step qRT-PCR Probe Kit (Vazyme) (Vazyme, Q223-01), with 3 replicates per sample. The prepared reaction mixture was placed in an ABI 7500 real-time PCR instrument, and the reaction proceeded following the procedures below. [formula]
(§8) Next, for the relative MEIS1 gene expression, the concentration (EC50) that inhibits 50% of relative MEIS1 gene expression was calculated using GraphPad Prism 8 software. […]
For orientation: Quantitative PCR measures a nucleic acid by following its amplification.

Experiment [3] concerns MEIS1 gene expression. Put plainly: Inhibition of MEIS1 gene expression in human tumor cells (qRT-PCR), MOLM-13. To be noted: read-out: MOLM-13 MEIS1 EC50; MOLM-13 (carrying MLL-AF9); 48 hours of incubation; relative MEIS1 gene expression vs GAPDH.
Description: as §4, §5, §6, §7, §8

Experiment [4] has as its system MV-4-11 (carrying MLL-AF4). The experiment is described as follows: Inhibition of proliferation of human tumor cells (Alamar Blue, 7 days), MV-4-11. To be noted: read-out: MV-4-11 IC50, MV-4-11 cells (carrying MLL-AF4), method calls the value GI50.
Description: as §1, §2
as §3, with “Subsequently, 100 µL of working solution (containing a 2-fold concentration series of the test compound) was added to each well, with duplicate wells set up for each concentration.” left out
Seven days after compound addition (on Day 7), an Alamar Blue assay reagent (MCE, HY-111391 / CS-0040317) was added to measure the fluorescence intensity in each well. Wells containing the cells in the growth medium supplemented with 0.1% DMSO (Day 7) served as high-read control wells. The readouts from the wells containing the cells in the growth medium supplemented with 0.1% DMSO on the day of compound addition (Day 0) served as low-reading control well. […]

Experiment [5] has as its system MEIS1 gene expression. The experiment is described as follows: Inhibition of MEIS1 gene expression in human tumor cells (qRT-PCR), OCI-AML3. The conditions noted are these: read-out: OCI-AML3 MEIS1 EC50; OCI-AML3 (carrying NPM1c); 48 hours of incubation; relative MEIS1 gene expression vs GAPDH.
Description: as §4, §5, §6
MV-4-11 cells were cultured in an IMDM medium containing 10% fetal bovine serum, or MOLM-13 and OCI-AML3 cells were cultured in an RPMI-1640 medium containing 20% fetal bovine serum, each supplemented with 100 U·mL^-1 penicillin and 100 µg·mL^-1 streptomycin. These cells were cultured at 37°C with 5% CO2. […] The threshold cycle (Ct) value for gene expression was determined using the HiScript II U+ One Step qRT-PCR Probe Kit (Vazyme) (Vazyme, Q223-01), with 3 replicates per sample. […]

The IC50 is the concentration that inhibits the measured activity by half. Turning to `CC(=O)N1CC2CC1CN2CCCC(C(C)C)N1CC(c2cc(-c3ccc(F)cc3C(=O)N3CCOCC3C)c3cnc(C)n3c2)C1` (stereo not shown), on Menin-MLL, the IC50 turned out to be 9 nM.
On to `Cc1ncc2c(-c3ccc(F)cc3C(=O)N(CCO)C(C)C)cc(C3CN(C(CCCN4CC5CC4CO5)C(C)C)C3)cn12` (single isomer, unassigned) [468], for which the IC50 on Menin-MLL stood at 4 nM.
Broadly, the EC50 is the concentration giving half of the maximal effect. For the compound `Cc1nc(F)c2c(-c3ccc(F)cc3C(=O)N3CCOCC3C)cc(C3CN(C(CCCN4CC5CC4CO5)C(C)C)C3)cn12` (stereo not shown), the IC50 on Menin-MLL worked out at 2.9 nM; in experiment [1], 6 nM. The EC50 in the experiment with MEIS1 gene expression [2] amounted to 7.5 nM; in the experiment on MEIS1 gene expression [3] it was 2.8 nM.
For `CC(=O)N1CC2CCC1CN2CCCC(C(C)C)N1CC(c2cc(-c3ccc(F)cc3C(=O)N3CCOC[C@H]3C)c3c(F)nc(C)n3c2)C1` (single isomer, unassigned) [343], the IC50 was 8.3 nM at Menin-MLL and 5.9 nM in experiment [1].
With `Cc1ncc2c(-c3ccc(F)cc3C(=O)N3CCOCC3C)cc(N3CCN(C(=O)C4NC5CCC4CC5)CC3)cn12` (stereo not shown), the half-maximal inhibitory concentration (IC50) at Menin-MLL came to 144 nM.
For the compound `Cc1ncc2c(-c3ccc(F)cc3C(=O)N(CCO)C(C)C)cc(C3CN(C(CCCN4CC5CC4CO5)C(C)C)C3)cn12` (single isomer, unassigned) [468-1], the IC50 was 1.2 nM at Menin-MLL and 19 nM in experiment [1].
On to `CC(=O)N1C2CCC1CN(CCCC(C(C)C)N1CC(c3cc(-c4ccc(F)cc4C(=O)N4CCOC[C@H]4C)c4c(F)nc(C)n4c3)C1)C2` (stereo partly shown), for which the IC50 at Menin-MLL turned out to be 16 nM.
Consider `CC(=O)N1CC2CCC1CN2CCCC(C(C)C)N1CC(c2cc(-c3ccc(F)cc3C(=O)N3CCOC[C@H]3C)c3c(F)nc(C)n3c2)C1` (single isomer, unassigned) [342], for which the IC50 was 6.2 nM at Menin-MLL and 5.3 nM in experiment [1].
As to `CCN(C(=O)c1cc(F)ccc1-c1cc(C2CCN(C(=O)C3NC4CCC3CC4)C2)cn2c(C)ncc12)C(C)C` (stereo not shown), the values for the IC50 (on Menin-MLL; in experiment [4]) were 57 nM and 68 nM, respectively.
As for `CCN(C(=O)c1cc(F)ccc1-c1cc(C2CN(C(CCCN3CC4CC3CO4)C(C)C)C2)cc2c1cnn2C)C(C)C` (stereo not shown), the IC50 on Menin-MLL came out at 4.5 nM; in experiment [1], 38 nM.
Consider `CCN(C(=O)c1cc(F)ccc1-c1cc(C2CN(C(CCCN3CC4CCC3CO4)C(C)C)C2)cn2c(C)ncc12)C(C)C` (stereo not shown), for which the IC50 at Menin-MLL turned out to be 2.6 nM.
With `CC(=O)N1CC2CCC(C1)N2CCCC(C(C)C)N1CC(c2cc(-c3ccc(F)cc3C(=O)N3CCOC[C@H]3C)c3c(F)nc(C)n3c2)C1` (stereo partly shown), the IC50 on Menin-MLL turned out to be 4 nM. Moreover, the EC50 with MEIS1 gene expression [2] was 13 nM; in the experiment with MEIS1 gene expression [3], 5.5 nM.
In the case of `CCN(C(=O)c1cc(F)ccc1-c1cc(C2CN(C(CCCN3CC4CC3CO4)C(C)C)C2)cn2c(C)ncc12)C(C)C` (stereo not shown), the figures for the IC50 (on Menin-MLL; in experiment [1]) were 2.2 nM and 3.8 nM, respectively.
Consider `Cc1nc(F)c2c(-c3ccc(F)cc3C(=O)N3CCOC[C@H]3C)cc(C3CN(CC4CCN(C(=O)C5CCOC5)CC4)C3)cn12` (stereo partly shown), for which the IC50 stood at 23.5 nM at Menin-MLL, 19 nM in experiment [4] and 38 nM in experiment [1].
Consider `C=C1CC2CCC1C(C(=O)N1CCN(c3cc(-c4ccc(F)cc4C(=O)N(CC)C(C)C)c4cnc(C)n4c3)CC1)N2` (stereo not shown), for which the IC50 on Menin-MLL was found to be 120 nM.
Take `Cc1nc(F)c2c(-c3ccc(F)cc3C(=O)N3CCOCC3C)cc(C3CN(C(CCCN4C5CCC4COC5)C(C)C)C3)cn12` (stereo not shown): the values for the IC50 (at Menin-MLL; in experiment [1]) were 4.4 nM and 4.1 nM, respectively.
Regarding `CCN(C(=O)c1cc(F)ccc1-c1cc(C2CN(C(CN3CCN(S(C)(=O)=O)CC3)C(C)C)C2)cn2c(C)ncc12)C(C)C` (stereo not shown), the IC50 at Menin-MLL turned out to be 21 nM.
Take `CC(=O)N1CC2CC1CN2CCCC(C(C)C)N1CC(c2cc(-c3ccc(F)cc3C(=O)N3CCOC[C@H]3C)c3c(F)nc(C)n3c2)C1` (stereo partly shown): at Menin-MLL, the IC50 worked out at 5 nM. Further, the EC50 in the experiment with MEIS1 gene expression [2] is 15 nM; in the experiment with MEIS1 gene expression [3], 6.2 nM.
On to `Cc1ncc2c(-c3ccc(F)cc3C(=O)N(C(C)C)C3CCC3)cc(N3CCN(C(=O)C4NC5CCC4CC5)CC3)cn12` (stereo not shown), for which the IC50 on Menin-MLL amounted to 55 nM.
`Cc1ncc2c(-c3ccc(F)cc3C(=O)N3CCOCC3C)cc(C3CN(C(CCCN4CC5CCC4CO5)C(C)C)C3)cn12` (stereo not shown): the results for the IC50 (on Menin-MLL; in experiment [1]) were 5.3 nM and 5 nM, respectively.
Take `Cc1nc(F)c2c(-c3ccc(F)cc3C(=O)N3CCOCC3C)cc(C3CN(C(CCCN4C5COCC4C5)C(C)C)C3)cn12` (stereo not shown): the IC50 worked out at 2.2 nM on Menin-MLL, 1.9 nM in experiment [4] and 6 nM in experiment [1]. Moreover, the EC50 in the experiment on MEIS1 gene expression [2] stood at 2.9 nM; in the experiment with MEIS1 gene expression [3], 2.1 nM; in the experiment on MEIS1 gene expression [5], 11 nM.

The values are drawn from patent EP4782453A1 (Beyang Therapeutics Co., Ltd., priority 2023, dated 2025).
